Reference: patent US12215173B2, “Kappa opioid receptor peptide amide ligands” (priority 2019, dated 2025)
Like-named read-outs stand apart in the source and are kept apart here.

Chains of the proteins cited; added tags and fusions are not shown.
UniProt P41145, whole entry: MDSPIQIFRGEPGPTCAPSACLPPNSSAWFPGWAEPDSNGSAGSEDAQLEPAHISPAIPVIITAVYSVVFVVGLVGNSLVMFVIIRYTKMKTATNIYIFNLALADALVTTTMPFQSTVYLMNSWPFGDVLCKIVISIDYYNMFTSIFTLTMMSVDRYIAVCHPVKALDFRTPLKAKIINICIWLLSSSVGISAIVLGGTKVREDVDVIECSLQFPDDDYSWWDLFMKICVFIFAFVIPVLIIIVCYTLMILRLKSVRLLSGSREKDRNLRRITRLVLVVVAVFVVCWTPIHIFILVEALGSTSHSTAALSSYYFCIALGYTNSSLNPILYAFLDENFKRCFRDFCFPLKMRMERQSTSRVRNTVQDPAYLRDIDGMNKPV
UniProt P35372, whole entry: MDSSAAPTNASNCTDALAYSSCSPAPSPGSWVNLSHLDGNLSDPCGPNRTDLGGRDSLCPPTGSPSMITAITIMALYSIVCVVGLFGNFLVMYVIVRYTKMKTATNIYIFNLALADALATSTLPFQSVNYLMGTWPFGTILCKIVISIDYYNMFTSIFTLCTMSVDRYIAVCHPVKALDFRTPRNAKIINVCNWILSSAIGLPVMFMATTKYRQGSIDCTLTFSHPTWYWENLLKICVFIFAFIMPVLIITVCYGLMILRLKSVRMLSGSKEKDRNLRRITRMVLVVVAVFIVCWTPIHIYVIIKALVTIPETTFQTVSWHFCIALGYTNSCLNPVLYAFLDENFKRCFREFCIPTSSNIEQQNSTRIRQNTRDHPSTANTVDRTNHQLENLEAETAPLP
UniProt P41143, whole entry: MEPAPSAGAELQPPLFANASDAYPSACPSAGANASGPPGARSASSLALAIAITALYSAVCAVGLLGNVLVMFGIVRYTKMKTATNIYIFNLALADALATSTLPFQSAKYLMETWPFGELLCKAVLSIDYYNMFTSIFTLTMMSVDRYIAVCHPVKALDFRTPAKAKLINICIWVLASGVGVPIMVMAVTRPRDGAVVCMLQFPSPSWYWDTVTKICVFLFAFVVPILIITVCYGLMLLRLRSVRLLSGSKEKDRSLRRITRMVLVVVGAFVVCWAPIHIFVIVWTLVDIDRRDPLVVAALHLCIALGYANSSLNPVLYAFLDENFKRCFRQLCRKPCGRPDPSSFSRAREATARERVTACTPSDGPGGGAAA

Columns and labels:
[1] = target: recombinant human kappa (KOR) opioid receptor (Homo sapiens (Human), UniProt P41145); assay: Opioid receptor radioligand binding assay, KOR; settings: read-out: KOR, IC50, HEK293 cell membranes, 0.5 nM [3H]diprenorphine
[2] = target: recombinant human mu (MOR) opioid receptor (Homo sapiens (Human), UniProt P35372); assay: Opioid receptor radioligand binding assay, MOR; settings: read-out: MOR, IC50, HEK293 cell membranes, 0.5 nM [3H]DAMGO
[3] = target: recombinant human delta (DOR) opioid receptor (Homo sapiens (Human), UniProt P41143); assay: Opioid receptor radioligand binding assay, DOR; settings: read-out: DOR, IC50, HEK293 cell membranes, 0.5 nM [3H]DADLE

Row | Compound | IC50 ([1]; tested form: 3HCl) [nM] | IC50 ([2]; tested form: 3HCl) [µM] | IC50 ([3]; tested form: 3HCl) [µM] | IC50 ([1]; tested form: TFA) [nM] | IC50 ([2]; tested form: TFA) [µM] | IC50 ([3]; tested form: TFA) [µM]
1 | CC(C)C[C@@H](NC(=O)[C@@H](Cc1ccccc1)NC(=O)C1(N)Cc2ccccc2C1)C(=O)N[C@H](CCCCN)C(=O)N1CCC(N)(C(=O)O)CC1 | 16.9 | > 10 | > 10 | – | – | –
2 | CC(C)C[C@H](NC(=O)[C@@H]1Cc2ccccc2CN1C(=O)[C@H](N)Cc1ccccc1)C(=O)N[C@H](CCCCN)C(=O)N1CCC(N)(C(=O)O)CC1 | – | – | – | 123 | > 10 | > 10
